This is an account of results in patent publication US8536171B2, “Method for obtaining 5-amino 2,3-dihydrophthalazine-1,4-dione alkali metal salts and their use in medicine” (Abidopharma PL SP. Z.O.O., priority 2009, dated 2013).

Data set [1] deals with rats with experimental myocardial infarction. The settings on record: 5 mg per kg per 24 hours intramuscularly. On the procedure: The animals of 230 to 258 g were subjected to ether narcosis for 1-3 minutes, Next, by the thoracotomy method there was achieved access to the anterior branch of the coronary artery and its lumen was closed by means of an electrode. The wound was closed by atraumatic sutures. […] The rats were divided in two groups.
The animals were being observed for 24 hours (every one in a separate cage). […] The second group of 10 rats (5 of each group) were killed after 5 days and the third group of 10 animals (5 of each group)—after 7 days. In all the rats there was performed postmortem macroscopic examination of hearts, pleura and abdominal cavity organs. The tissues were taken from the infarct focus for microscopic examination. They were retained in formalin and stained conventionally with H-E. Blood for biochemical tests was taken by heart puncture of 3 ml volume.

Data set [2] concerns people after myocardial infarction. Particulars: 15 patients.
The test system of data set [3] is patients with acute and chronic pancreatitis. The settings on record: 25 patients.

With `Nc1cccc2c(=O)[nH][nH]c(=O)c12.[Na]` [II-Na salt, 5-amino-2,3-dihydrophthalazine-1,4-dione sodium salt], the “reaction in the place of injection” value in data set [1] was “neither pain reaction nor local inflammatory state”. The side effects result in data set [2] is given as “no side effects”; in data set [3] it was “not observed significant side effects”.
